Source: PubChem BioAssay AID549 (SRMLSC, 2006)
The source made the active and inactive calls.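 The calls were made as follows: active = clearly stronger inhibition of phosphomevalonate kinase than of the coupling enzymes alone in a parallel counterscreen; inactive = the rest.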

Biological target: phosphomevalonate kinase (Streptococcus pneumoniae D39)
Experiment: S. pneumoniae PMK inhibitor potency, dose response, biochemical, mevalonate pathway, coupling enzyme counter-screen (AID 549)
Conditions: PK/LDH coupled NADH absorbance 340 nm

SMILES: O=P(Nc1nccs1)(c1ccccc1)c1nc2ccccc2s1 (stereo unspecified)
- IC50: inactive
